Target: N-terminal HiBiT tagged BCL6 (Homo sapiens, UniProt P41182)
Assay: HiBiT based degradation assay
Settings: HT1080 cells expressing N-terminal HiBiT tagged BCL6, 5 hours of incubation
Source text: Human BCL6 protein coding open reading frame fused with N-terminal HiBiT coding sequence was synthesized from Integrated DNA Technologies (IDT). Next, the N-HiBiT-BCL6 sequence was cloned into pLV-UBC-PGK-Puro, a lentivirus plasmid purchased from Vectorbuilder, to generate pLV-UBC-N-HiBiT-BCL6-PGK-puro. Lentiviral particles were generated from Lenti-X™ 293T cells (Clontech) by co-transfection of pLV-UBC-N-HiBiT-BCL6-PGK-puro plasmids and lentiviral packaging plasmid mix (Cellecta). HT1080 [HT1080] (ATCC CCL-121) cells were infected with the lentivirus, and HT1080 cells stably integrated with the lentiviral vectors were established by incubation with 1 μg/mL puromycin (Thermofisher).
HT1080 cells expressing N-terminal HiBiT tagged BCL6 were dispensed into a 384-well plate pre-spotted with compounds at varying concentrations. Five thousand cells were seeded into each well in 40 μL of RPMI 1640 media plus 10% Fetal Bovine Serum (10082-147, Thermofisher). After 5 hours of incubation at 37° C. with 5% CO2, 30 μL of the NANO-GLOR HiBiT Lytic Detection System working solution (Promega) was added to each well and incubated at room temperature for 15 min. After incubation, luminescence was read on a PHERAstar FSX Plate Reader (BMG). BCL6 degradation at each indicated concentration was normalized with DMSO control. The BCL6 degradation curves were plotted using a four-parameter logistic model.

CNC(=O)COc1cc2cc(Nc3nc(N4CCN(CC5CCN(c6cccc7c(N8CCC(=O)NC8=O)nn(C)c67)CC5)CC4)ncc3Cl)cnc2n(C)c1=O
Ymin (5 hr) (BCL6 degradation normalized with DMSO control): ++ (50% ≤ Ymin < 70%)
EC50 (read-out: EC50 (5 hr), four-parameter logistic model): 10 to 100 nM
